The values that follow come from patent US8945566B2, “Methods for improving the bioactivity of therapeutic IgE antibodies for the treatment of disease” (Quest PharmaTech, Inc., priority 2008, dated 2015).

The assay has as its system ECD-Her2. The assay is described as follows: antigen presentation assay (APA): dendritic cells loaded with Her2 antigen and antibody, T cell IFN-γ staining. The format is cell-based, human. Conditions: DC loaded with ECD-Her2 plus Ab, three rounds of stimulation, intracellular cytokine staining and flow cytometry. How it is done:
FIG. 1: schematic of antigen presentation assay (APA). Dendritic cells (DC) are cultured from human PBMCs in the presence of IL-4 and GM-CSF. On day 7, the primary culture is loaded with tumor associated antigen (TAA) and antibody (Ab) and matured with a standard maturation cocktail (e.g. TNF-α/IFN-α). Next, T cells are added and cultured for 7 days. Subsequently, the T cell culture is stimulated with two additional rounds of TAA/Ab using fresh DC cultures. Following the third round of TAA/Ab stimulation, the T cells are analyzed for tumor-specific responses.
Human dendritic cells (DC) are cultured from human PBMCs in the presence of IL-4 and GM-CSF as previously described (Berlyn 2001) and illustrated in FIG. 1. On day 7, the primary culture is loaded with tumor associated antigen (TAA) and antibody (Ab) and matured with a standard maturation cocktail (e.g. TNF-α/IFN-α). The culture is then combined with autologous lymphocytes and cultured for 7 days. […] Cells are then washed, fixed, and permeabilized and stained intracellularly with anti-IFN-γ-PE and analyzed by flow cytometry. […] T cells from APA assay were analyzed for IFN-γ production by intracellular cytokine staining and flow cytometry. […] Quantification of the effect of the antibody antigen combinations tested in FIG. 2 are illustrated in FIG. 3, and FIG. 4. […]

In the case of “anti-Her2 IgG1: anti-Her2 IgG1 (Herceptin)”, the “antigen presentation (IFN-γ production by CD8+ and CD4+ T cells)” value was “enhanced”.
